Laboratory results taken from US20180207148A1 (priority 2015, published 2018).

Details: following 2 consecutive daily doses of 60, 90, or 150 mg/m^2

Q: For `CC(=O)O[C@H]1C(=O)[C@@]2(C)[C@H]([C@H](OC(=O)c3ccccc3)[C@]3(O)C[C@H](OC(=O)[C@H](O)[C@@H](NC(=O)c4ccccc4)c4ccccc4)C(C)=C1C3(C)C)[C@]1(OC(C)=O)CO[C@@H]1C[C@@H]2O` [Paclitaxel, 5,20-Epoxy-1,2,4,7,10-13-hexahydroxytax-11-en-9-one-4,10-diacetate 2-benzoate 13-ester with (2R,3S)—N-benzoyl-3-phenylisoserine], which “accumulation in paclitaxel Cmax and AUC” value is on record?
A: minimal to no accumulation
